# Test results published in US9682066B2 (University of Cincinnati, priority 2012, dated 2017).
# Experiments:
# [1] = system: human glioma cell line U251MG; test: cells; details: U-251, read-out: IC50 (MTT) cytotoxicity
# [2] = system: human glioma cell line U251MG; details: 0-100 μM, 1-3 days
# [3] = system: human glioma cell line LN229; details: 0-100 μM, 1-3 days
# [4] = system: human glioma cell line LN229; test: cells; details: LN-229, read-out: IC50 (MTT) cytotoxicity
# [5] = system: C6 glioma; details: 4 mg/kg/day i.v. for 8-10 days, n=8; Day 0 average 150±48.5 mm^3; P=0.0001
# [6] = system: human glioma cell line U87MG; details: 0-100 μM, 1-3 days
# [7] = system: human glioma cell line U87MG; test: cells; details: U-87 MG, read-out: IC50 (MTT) cytotoxicity
smiles,measurement,setting,value
"N#Cc1ccc(C(c2ccc(C#N)cc2)n2cncn2)cc1 [letrozole, 4,4′-((1H-1,2,4-triazol-1-yl)methylene)dibenzonitrile]",IC50,[1],910 nM
same,cytotoxicity in charcoal-stripped serum medium compared to normal serum,[2],higher
same,cytotoxicity in charcoal-stripped serum medium compared to normal serum,[3],higher
same,IC50,[4],960 nM
same,average active tumor volume on Day 8/10,[5],32.75±20 mm^3
same,cytotoxicity in charcoal-stripped serum medium compared to normal serum,[6],higher
same,IC50,[7],1390 nM
